Values of other authors as cited in patent US10952975B2, “Compositions and methods for treatment of cancer” (priority 2019, dated 2021).

Protein sequences, listed by entry. Tags and fused reporters are not part of them.
UniProt P31153, whole entry: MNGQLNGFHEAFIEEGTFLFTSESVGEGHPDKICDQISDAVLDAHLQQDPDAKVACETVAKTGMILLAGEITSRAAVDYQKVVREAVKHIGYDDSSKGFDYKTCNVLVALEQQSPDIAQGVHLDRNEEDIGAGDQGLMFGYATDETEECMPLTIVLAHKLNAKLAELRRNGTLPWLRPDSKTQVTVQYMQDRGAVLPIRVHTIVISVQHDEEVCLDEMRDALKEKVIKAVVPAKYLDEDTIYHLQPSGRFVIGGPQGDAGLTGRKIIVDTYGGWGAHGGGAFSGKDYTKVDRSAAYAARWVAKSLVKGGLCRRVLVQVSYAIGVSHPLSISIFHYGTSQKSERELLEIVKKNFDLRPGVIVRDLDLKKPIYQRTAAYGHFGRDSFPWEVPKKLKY

What was measured:
[1] = test system: LS174T CRC (colorectal cancer); settings: 3 μM, up to 7 d in vitro
MAT2A = MAT2A (Homo sapiens, UniProt P31153); settings: cell-free and cell-based
HT29 CRC tumor = settings: d 18 post xenograft; 20 mg/kg/day orally starting d 4
LS174T cells = settings: 36 h, 3 μM FIDAS-5

CNc1ccc(/C=C/c2c(F)cccc2Cl)cc1
inhibition of proliferation [1]: completely inhibit
potency relative to FIDAS-3 in inhibiting MAT2A-catalyzed SAM synthesis (MAT2A): > 2 fold
suppression of HT29 CRC tumor expansion (HT29 CRC tumor): 58%
decrease of SAH level (LS174T cells): 56%
decrease of SAM level (LS174T cells): 64%
